Laboratory results as given in patent US20140235578A1, “METHODS FOR TREATING NEOPLASIA AND FOR IDENTIFYING COMPOSITIONS USEFUL IN SUCH THERAPY” (priority 2007, published 2014).
“Also recorded” adds a separate entry of the source.

Protein sequences, listed by entry. Tags and fused reporters are not part of them. Lines headed by an entry give the natural chain unless they say otherwise; changes in a name come on top.
UniProt P11388: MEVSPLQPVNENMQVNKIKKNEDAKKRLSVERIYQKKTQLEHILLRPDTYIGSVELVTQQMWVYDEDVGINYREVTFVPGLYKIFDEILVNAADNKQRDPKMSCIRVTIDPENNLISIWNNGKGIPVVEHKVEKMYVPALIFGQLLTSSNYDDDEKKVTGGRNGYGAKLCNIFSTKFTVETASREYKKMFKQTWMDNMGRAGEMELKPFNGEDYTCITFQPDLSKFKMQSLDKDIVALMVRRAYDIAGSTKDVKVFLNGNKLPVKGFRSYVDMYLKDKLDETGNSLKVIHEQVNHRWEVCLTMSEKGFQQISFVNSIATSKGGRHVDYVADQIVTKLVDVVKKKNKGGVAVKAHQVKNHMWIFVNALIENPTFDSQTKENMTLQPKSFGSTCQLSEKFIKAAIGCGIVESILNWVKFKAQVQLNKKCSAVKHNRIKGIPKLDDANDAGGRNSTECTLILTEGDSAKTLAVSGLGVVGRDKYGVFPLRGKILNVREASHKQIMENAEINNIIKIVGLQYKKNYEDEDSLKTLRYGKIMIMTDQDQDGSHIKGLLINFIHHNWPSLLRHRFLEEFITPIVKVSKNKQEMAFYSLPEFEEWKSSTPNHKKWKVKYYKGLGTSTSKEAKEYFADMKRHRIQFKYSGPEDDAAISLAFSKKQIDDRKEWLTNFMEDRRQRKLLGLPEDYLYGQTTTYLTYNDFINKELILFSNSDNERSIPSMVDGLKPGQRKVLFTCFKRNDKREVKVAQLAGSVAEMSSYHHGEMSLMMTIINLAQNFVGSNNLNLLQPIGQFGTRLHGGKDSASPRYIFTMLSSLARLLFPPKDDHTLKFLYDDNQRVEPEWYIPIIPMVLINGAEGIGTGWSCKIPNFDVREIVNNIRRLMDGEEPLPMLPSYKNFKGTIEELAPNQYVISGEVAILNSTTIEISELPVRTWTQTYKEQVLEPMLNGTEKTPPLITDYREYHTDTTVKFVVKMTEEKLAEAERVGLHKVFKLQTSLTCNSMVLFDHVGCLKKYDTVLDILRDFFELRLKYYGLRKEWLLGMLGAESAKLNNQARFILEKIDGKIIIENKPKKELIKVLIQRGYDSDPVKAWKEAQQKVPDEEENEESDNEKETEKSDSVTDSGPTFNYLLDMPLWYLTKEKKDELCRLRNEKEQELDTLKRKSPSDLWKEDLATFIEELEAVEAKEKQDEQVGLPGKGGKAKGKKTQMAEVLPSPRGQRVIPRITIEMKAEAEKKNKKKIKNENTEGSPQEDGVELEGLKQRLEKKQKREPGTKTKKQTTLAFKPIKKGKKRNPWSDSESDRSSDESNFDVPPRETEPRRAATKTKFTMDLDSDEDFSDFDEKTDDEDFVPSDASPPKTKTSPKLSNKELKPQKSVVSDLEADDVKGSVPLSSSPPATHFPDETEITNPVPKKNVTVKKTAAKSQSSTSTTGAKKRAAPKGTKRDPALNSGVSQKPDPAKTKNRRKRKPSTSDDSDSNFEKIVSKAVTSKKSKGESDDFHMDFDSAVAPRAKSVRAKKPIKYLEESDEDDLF

Target: purified recombinant human Top2α (Homo sapiens, UniProt P11388)
Test: In vitro DNA cleavage assay (Bodley et al.), Top2α
Type: biochemical
Protocol: Various β-carboline derivatives of compounds of Formula I above were evaluated for their antineoplastic activities and for their ability to preferentially poison Top2 isozymes. These compounds (i.e. those in Table 1 below) were also evaluated for Top2 isozyme-specific poisoning using the in vitro DNA cleavage assay described by Bodley et al. In the studies, purified recombinant human Top2 isozymes were used.
Reactions were terminated with SDS (final 1%) and digested with proteinase K (100 μg/ml at 50° C. for 1 hr). After adding gel loading solution, the reaction mixtures were analyzed by agarose gel electrophoresis. Gel was dried and exposed to x-ray films for visualization.
In certain preferred embodiments, the methods for identifying Top2α preferential poisons include using in vitro DNA cleavage assays. […] In this assay, the ability of various Top2 poisons to induce Top2 isozyme-mediated DNA cleavage of ^32P end-labeled linearized plasmid DNA was assessed. Thus, the relative specificity of various Top2 poisons against Top2 isozymes can be qualitatively determined based on the depletion of band intensities and/or the intensities of bands representing the cleavage products.

Structure (SMILES): COc1cc([C@@H]2c3cc4c(cc3[C@@H](O[C@@H]3O[C@@H]5CO[C@@H](C)O[C@H]5[C@H](O)[C@H]3O)[C@H]3COC(=O)[C@H]23)OCO4)cc(OC)c1O [VP16, etoposide]
- preference of poisoning Top2α versus Top2β: non-preferentially; also recorded: equally
